# Data published in PubChem BioAssay AID1259310 (The Scripps Research Institute Molecular Screening Center, 2017).
# Chains of the proteins cited; added tags and fusions are not shown. Lines headed by an entry give the natural chain unless they say otherwise; changes in a name come on top.
# UniProt Q969H0, whole entry, stated change not applied: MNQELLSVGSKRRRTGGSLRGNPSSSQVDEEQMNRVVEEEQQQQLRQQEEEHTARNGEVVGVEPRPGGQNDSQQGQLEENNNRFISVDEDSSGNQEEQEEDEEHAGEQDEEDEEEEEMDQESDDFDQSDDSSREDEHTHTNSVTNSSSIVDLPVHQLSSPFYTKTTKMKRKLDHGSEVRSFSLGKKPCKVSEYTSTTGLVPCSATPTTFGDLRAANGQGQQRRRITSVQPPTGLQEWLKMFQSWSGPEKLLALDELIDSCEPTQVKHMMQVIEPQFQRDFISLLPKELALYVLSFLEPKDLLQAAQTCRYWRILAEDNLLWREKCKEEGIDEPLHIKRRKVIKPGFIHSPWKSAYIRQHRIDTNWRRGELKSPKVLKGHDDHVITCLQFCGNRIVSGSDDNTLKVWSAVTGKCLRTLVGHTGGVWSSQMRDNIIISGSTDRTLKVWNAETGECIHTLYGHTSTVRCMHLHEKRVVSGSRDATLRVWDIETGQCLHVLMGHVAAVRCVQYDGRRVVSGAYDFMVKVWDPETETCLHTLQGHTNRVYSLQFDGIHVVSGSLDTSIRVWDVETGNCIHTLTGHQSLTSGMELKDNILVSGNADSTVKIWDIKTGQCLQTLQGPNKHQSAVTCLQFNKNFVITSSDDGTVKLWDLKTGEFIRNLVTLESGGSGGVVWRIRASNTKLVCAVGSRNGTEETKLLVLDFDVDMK
# The entries are a selection whose mix differs from that of the whole data set. Some results for these compounds are left out of this collection, so the calls shown say nothing about other tests. The source made the active and inactive calls. No stated cut-off is given here; in the data, active means normalized activity above about 1.9%; inactive means the rest.
# Target: F-box/WD repeat-containing protein 7 (Homo sapiens) (UniProt Q969H0)
# Assay: FBW7 E3 ligase activators, primary screen, biochemical, AlphaScreen, human (AID 1259310);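 further: purified mutant Fbw7 with reduced substrate affinity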
# Settings: AlphaScreen FBW7–phospho-cyclin E peptide binding, activator screen; at 26.1 µM; active compounds read high
row,SMILES,normalized activity (activation)
1,O=C(c1ccco1)N(Cc1ccco1)C1CCN(CCc2cccs2)CC1,inactive: -0.19%
2,CC(=O)N(Cc1cccnc1)C1CCN(CCc2cccs2)CC1,inactive: 0.15%
